Test results as given in ChEMBL document CHEMBL1146972, “Specific inhibitors of Plasmodium falciparum thioredoxin reductase as potential antimalarial agents” (Bioorg Med Chem Lett, 2006).
pIC50: −log10 of the molar value.

Chains of the proteins cited; added tags and fusions are not shown. Residues count along the entry.
UniProt Q16881, whole entry: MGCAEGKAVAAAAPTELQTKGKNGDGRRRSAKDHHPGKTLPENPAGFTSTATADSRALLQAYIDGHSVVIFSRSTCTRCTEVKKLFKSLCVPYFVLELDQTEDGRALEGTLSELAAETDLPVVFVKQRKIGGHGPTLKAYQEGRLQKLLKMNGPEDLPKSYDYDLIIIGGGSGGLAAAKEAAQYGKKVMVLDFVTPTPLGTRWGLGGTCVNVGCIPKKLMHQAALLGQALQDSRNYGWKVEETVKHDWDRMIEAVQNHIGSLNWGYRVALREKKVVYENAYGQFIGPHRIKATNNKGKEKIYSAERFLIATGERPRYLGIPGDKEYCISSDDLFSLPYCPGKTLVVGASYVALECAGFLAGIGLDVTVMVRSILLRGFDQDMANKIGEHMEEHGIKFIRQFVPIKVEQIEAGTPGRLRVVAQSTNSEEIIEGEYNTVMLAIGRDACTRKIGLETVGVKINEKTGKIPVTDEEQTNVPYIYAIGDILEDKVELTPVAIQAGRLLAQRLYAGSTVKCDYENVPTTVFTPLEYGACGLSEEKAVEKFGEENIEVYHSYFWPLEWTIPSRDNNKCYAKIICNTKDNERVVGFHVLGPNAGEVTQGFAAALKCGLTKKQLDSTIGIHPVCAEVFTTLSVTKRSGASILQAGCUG
UniProt Q9NNW7, 37-524 limits assumed: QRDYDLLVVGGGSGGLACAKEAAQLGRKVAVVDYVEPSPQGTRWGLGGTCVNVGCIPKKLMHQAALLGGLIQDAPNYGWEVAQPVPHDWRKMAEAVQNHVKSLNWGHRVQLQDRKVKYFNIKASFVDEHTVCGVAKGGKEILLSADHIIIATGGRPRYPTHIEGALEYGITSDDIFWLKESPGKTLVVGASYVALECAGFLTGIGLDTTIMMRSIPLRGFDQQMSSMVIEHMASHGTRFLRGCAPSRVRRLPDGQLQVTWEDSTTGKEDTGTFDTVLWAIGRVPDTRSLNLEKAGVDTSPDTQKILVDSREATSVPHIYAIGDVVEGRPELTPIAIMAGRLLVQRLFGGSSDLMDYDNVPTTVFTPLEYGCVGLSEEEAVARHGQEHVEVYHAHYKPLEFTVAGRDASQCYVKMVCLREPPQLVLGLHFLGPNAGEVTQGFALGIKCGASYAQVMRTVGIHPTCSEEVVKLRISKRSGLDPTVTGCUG
UniProt Q86VQ6, whole entry: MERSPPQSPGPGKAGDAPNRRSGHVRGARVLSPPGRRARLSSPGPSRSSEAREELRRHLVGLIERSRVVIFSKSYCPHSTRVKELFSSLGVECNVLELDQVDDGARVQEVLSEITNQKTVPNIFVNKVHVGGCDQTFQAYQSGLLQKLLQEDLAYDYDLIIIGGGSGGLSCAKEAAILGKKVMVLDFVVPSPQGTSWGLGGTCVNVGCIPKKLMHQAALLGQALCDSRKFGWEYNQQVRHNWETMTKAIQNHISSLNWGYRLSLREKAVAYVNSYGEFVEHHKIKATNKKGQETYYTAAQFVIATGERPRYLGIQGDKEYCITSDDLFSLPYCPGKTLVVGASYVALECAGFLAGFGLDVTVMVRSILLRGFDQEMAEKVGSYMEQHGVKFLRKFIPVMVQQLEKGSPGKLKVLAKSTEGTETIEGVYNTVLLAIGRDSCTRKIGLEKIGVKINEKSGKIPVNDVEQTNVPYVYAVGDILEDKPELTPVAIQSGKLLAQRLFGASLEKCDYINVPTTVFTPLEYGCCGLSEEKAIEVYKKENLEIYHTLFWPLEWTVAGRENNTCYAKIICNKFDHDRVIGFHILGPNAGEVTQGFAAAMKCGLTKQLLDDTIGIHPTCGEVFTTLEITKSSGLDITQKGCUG

Target: Thioredoxin reductase (Homo sapiens, UniProt Q16881+Q9NNW7+Q86VQ6)
Assay: Inhibition of human TrxR
Type: protein assay

For `O=[N+]([O-])c1cc([N+](=O)[O-])c2nsnc2c1`, the pIC50 was 5.70.
